From US4897426A, “Method for blocking calcium channels” (New York University, priority 1989, dated 1990)

Tests used:
[1] = test system: low-threshold calcium channels (LTCC); test: Intracellular recording of low-threshold calcium rebound spike in inferior olivary cells of brain slices (LTCC blockage); type: cell-based, guinea pig
[2] = test system: rat brain synaptic membrane vesicles; conditions: 10^-1 M; cited from earlier work

SMILES | Relative effectiveness vs butanol, LTCC inhibition ([1]; FIG. 5, graphs E through H (pentanol 0.1% or 0.05%, butanol 0.25%), as observed, not adjusted for injected current) | Preferred highest molar concentration / operative range for substantial and total blockage of LTCC: To About ([1]; complete blockage of LTCC) | Relative effectiveness vs butanol, taking injected current into account ([1]; injected current 0.5 nA in alcohol-exposed cells, 0.25 nA in controls) | Inhibition of LTCC compared with propanol ([1]; pentanol at 5-fold lower concentration, FIG. 5, H with E) | Inhibition of calcium influxes [2]
CCCCCO [pentanol] | more than five times | ~10^-7 M | over ten times | more effective than propanol | 
CCCCO [butanol] |  |  |  |  | inhibited calcium influxes
